22 molecules from publication PMC7723054 can be followed below.

The list shows a part of the results.

T1: LIN28A (human?, UniProt Q9H9Z2 1-209)
T1 sequence: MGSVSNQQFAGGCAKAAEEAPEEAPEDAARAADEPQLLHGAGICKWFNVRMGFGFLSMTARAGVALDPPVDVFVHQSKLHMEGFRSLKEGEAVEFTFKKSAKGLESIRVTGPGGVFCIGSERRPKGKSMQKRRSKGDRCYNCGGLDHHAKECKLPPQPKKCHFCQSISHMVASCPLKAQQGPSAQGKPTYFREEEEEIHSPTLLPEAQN

T2: CIRBP (Homo sapiens, UniProt Q14011 1-172)
T2 sequence: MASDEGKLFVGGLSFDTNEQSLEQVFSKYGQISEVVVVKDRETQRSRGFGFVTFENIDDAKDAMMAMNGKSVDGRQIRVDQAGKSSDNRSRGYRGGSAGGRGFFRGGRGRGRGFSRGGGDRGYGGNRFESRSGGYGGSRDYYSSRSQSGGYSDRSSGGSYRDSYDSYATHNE

T3: DHX36 (Homo sapiens, UniProt Q9H2U1 1-1008)
T3 sequence: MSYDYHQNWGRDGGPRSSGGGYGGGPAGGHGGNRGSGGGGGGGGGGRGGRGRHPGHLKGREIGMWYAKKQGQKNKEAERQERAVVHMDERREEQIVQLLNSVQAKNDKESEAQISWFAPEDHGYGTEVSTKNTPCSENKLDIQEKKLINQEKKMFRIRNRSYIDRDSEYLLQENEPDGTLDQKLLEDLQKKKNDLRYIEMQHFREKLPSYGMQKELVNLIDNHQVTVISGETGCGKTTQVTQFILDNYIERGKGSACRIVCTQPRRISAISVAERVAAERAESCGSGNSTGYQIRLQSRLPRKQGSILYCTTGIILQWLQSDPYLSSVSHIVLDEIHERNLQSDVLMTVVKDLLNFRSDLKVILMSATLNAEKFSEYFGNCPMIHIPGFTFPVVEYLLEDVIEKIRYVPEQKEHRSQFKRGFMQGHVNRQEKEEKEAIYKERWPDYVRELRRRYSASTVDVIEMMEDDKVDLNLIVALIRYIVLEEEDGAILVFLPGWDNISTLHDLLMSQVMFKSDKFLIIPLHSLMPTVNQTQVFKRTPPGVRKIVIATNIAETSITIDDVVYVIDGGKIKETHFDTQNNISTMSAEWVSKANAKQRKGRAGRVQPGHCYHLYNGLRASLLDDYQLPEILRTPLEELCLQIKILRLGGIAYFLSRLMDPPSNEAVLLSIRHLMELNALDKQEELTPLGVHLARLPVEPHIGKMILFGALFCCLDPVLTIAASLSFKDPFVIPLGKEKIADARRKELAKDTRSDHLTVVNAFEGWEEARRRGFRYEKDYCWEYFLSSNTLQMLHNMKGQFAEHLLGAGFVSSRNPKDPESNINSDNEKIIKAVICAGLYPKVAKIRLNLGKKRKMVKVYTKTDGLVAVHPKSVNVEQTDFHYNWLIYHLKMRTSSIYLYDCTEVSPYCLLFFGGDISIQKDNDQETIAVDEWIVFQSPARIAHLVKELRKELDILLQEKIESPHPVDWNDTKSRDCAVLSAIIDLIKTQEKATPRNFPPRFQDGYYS

B1: hsa-mir-621 (structured_RNA)
RNA: GGGACCGGAGUAAUGUCUAAACCGUGCAGGUGUACGAAGUUUCAGCUGCUCUGAUGAAGACCCAUGUGGCGCUGAAGCUUCGUGCAC
B2: hsa-mir-6895 (structured_RNA)
RNA: GGGAACUGUUCGCCAAACGCCGGUUAAAGGUGUACGAAGUUUCAGCCACAGAGUAAGCAUCAAUAGCAUUGGCAAGUUGAACUGAGCUGUCGCUGAAGCUUCGUGCAC
B3: hsa-mir-4435-1_4435-2 (structured_RNA)
RNA: GGGAAGAUGCAGAACUGACCUAUUACGGGGUGUACGAAGUUUCAGCGAGGGAUGAGUGCACUUCACCUGCGCUGAAGCUUCGUGCAC
B4: hsa-mir-1224 (structured_RNA)
RNA: GGGACGGCAGCCUUCAGUUCCUAGUCAAGGUGUACGAAGUUUCAGCGUGGAGGGUGGUGCCGCCGGGGCCGGGCGCUGUUUCAGCUCGCUUCUCCCCCCACGCUGAAGCUUCGUGCAC
B5: hsa-mir-3158-2 (structured_RNA)
RNA: GGGAGAUAGCGCUGCGGGAGCCUGUAUAGGUGUACGAAGUUUCAGCCCUUCCAAUACCUGUAAGCAGAAGGGCUGAAGCUUCGUGCAC
B6: hsa-mir-5688 (structured_RNA)
RNA: GGGAAUAAUUUCCUGUCCCACUAGCCACGGUGUACGAAGUUUCAGCAUUAUGUUUUGGACAUAGAAACAUAACGCUGAAGCUUCGUGCAC
B7: hsa-mir-6891 (structured_RNA)
RNA: GGGACAGUAAUCUUUUAGAGCGAGCCGGGGUGUACGAAGUUUCAGCAGGGGUCAUAUCUCUUCUCAGGGAAAGCAGGAGCCCUUCAGCAGGGUCAGGGCCCCUGCUGAAGCUUCGUGCAC
B8: hsa-mir-6821 (structured_RNA)
RNA: GGGAGACGAUGUAAUGAAAACCGAUGUCGGUGUACGAAGUUUCAGCGCGGGGGUGGGGGCCUCGCCCUGCUUGGGCCCUCCCUGACGCUGAAGCUUCGUGCAC
B9: hsa-mir-219a-2 (structured_RNA)
RNA: GGGACAGCGGAUGGUUACCAUCAAUAGUGGUGUACGAAGUUUCAGCUUCUUGUACGAGUCUGCGGCCAACCGAGAAGCUGAAGCUUCGUGCAC
B10: hsa-mir-4778 (structured_RNA)
RNA: GGGAGGAGAGCAUACACCGUCACUAUCUGGUGUACGAAGUUUCAGCAAGAGGUAAGAAGAAGUGAAGCCCUCUUGCUGAAGCUUCGUGCAC
B11: hsa-mir-6876 (structured_RNA)
RNA: GGGAUACAAUGCAGGCCAAGCAGCAACCGGUGUACGAAGUUUCAGCAGUUCAGGAGGUGGCACUGCUGUGUGUGAGCUGCUGAAGCUUCGUGCAC
B12: hsa-mir-497 (structured_RNA)
RNA: GGGAGAGAAAGUAGAAUCCCGGGUAGCAGGUGUACGAAGUUUCAGCUUUGUACGGCACUGUGGCCACGUCCAAAGCUGAAGCUUCGUGCAC
B13: hsa-mir-27b (structured_RNA)
RNA: GGGAAUCUAGAUGUAUCGUAAGCACAGAGGUGUACGAAGUUUCAGCUGAACAGUGAUUGGUUUCCGCUUUGUUCAGCUGAAGCUUCGUGCAC
B14: hsa-mir-6792 (structured_RNA)
RNA: GGGAACCCCGGUUAUUUGAUGUACGGUUGGUGUACGAAGUUUCAGCGUGAUGUGAGGAGCAACAGGCACCCUCCUGCUGAAGCUUCGUGCAC
B15: PARIS_ID18 (structured_RNA)
RNA: GGGAACGGAUGGCUGUAUCCUCUGAAAUGGUGUACGAAGUUUCAGCUCACUGGUCUUGUAAUUAAAAUUCAAACACUAUAGAAAAAGGCCAUGUAGAGCUGAAGCUUCGUGCAC
B16: hsa-mir-30c-2 (structured_RNA)
RNA: GGGACGAAUUGCCCAUCCCUAAAACCAGGGUGUACGAAGUUUCAGCUCAGCUGUGGAAAGUAAGAAAGCUGGGCUGAAGCUUCGUGCAC
B17: hsa-mir-499a (structured_RNA)
RNA: GGGACAGGCAGGUGCUUUACCGAUUAAGGGUGUACGAAGUUUCAGCUGUUUAACUCCUCUCCACGUGAACAGCUGAAGCUUCGUGCAC
B18: hsa-let-7f-2 (structured_RNA)
RNA: GGGACAAGCGUUAAGGCAAGCUACCCACGGUGUACGAAGUUUCAGCAUAGUUUUAGGGUCAUACCCCAUCUUGGAGAUAACUAUGCUGAAGCUUCGUGCAC
B19: hsa-mir-1251 (structured_RNA)
RNA: GGGACCGCUCAAUCAAGCUUAAGUGCAGGGUGUACGAAGUUUCAGCGGCGCUUCUCCUUCUGAACAGAGCGCUGCUGAAGCUUCGUGCAC
B20: hsa-mir-4300 (structured_RNA)
RNA: GGGACCACCUCGGGGAUUACCUACUGUCGGUGUACGAAGUUUCAGCAUCAGCAGAGACAUGAGGUGAUCAAAAACCUUUUUUCAAAGCAGUGGGGCUGAAGCUUCGUGCAC
B21: hsa-mir-7162 (structured_RNA)
RNA: GGGAACUCGAUCGCGCGAUGAUAGCAAAGGUGUACGAAGUUUCAGCGCUGAACCCCUGCCCCUGGAGCCCCCAGCAGGGCCCUCGCUGAAGCUUCGUGCAC
B22: hsa-mir-1306 (structured_RNA)
RNA: GGGAAAACCUACGGUAUUGGAGUUGUCUGGUGUACGAAGUUUCAGCACGUCCAGUGGUGCAGAGGUAAUGGACGUGCUGAAGCUUCGUGCAC

The first assay deals with U1A (Homo sapiens, UniProt P09012). Put plainly: FOREST: bead pull-down of RNA structure library v1, barcode microarray; U1A/LIN28A: 20 mM HEPES pH 7.5, 80 mM KCl, 20 mM NaCl, 10% glycerol, 2 mM DTT, 0.1 ug/uL BSA, 4 C; BG4/CIRBP/DHX36: 10 mM Tris-HCl pH 7.5, 100 mM KCl (or LiCl),; high values mean tight binding.
B1: the binding signal came to 0.716 z-score.

In the case of B2, the binding signal was 0.726 z-score.

Turning to B3, the binding signal stood at 0.727 z-score.

As for B4, the binding signal is 0.725 z-score.

Regarding B5, the binding signal came to 0.714 z-score.

On to B6, for which the binding signal is 0.736 z-score.

B7 yielded a binding signal of 2.29 z-score.

B8 returned a binding signal of 0.722 z-score.

B9 registered a binding signal of 0.73 z-score.

The molecule B10 yielded a binding signal of 0.729 z-score.

With B11, the binding signal came to 0.752 z-score.

In turn, B12 gave a binding signal of 0.749 z-score.

As for B13, the binding signal was found to be 0.743 z-score.

In the case of B14, the binding signal was found to be 0.728 z-score.

B15: the binding signal is 2.24 z-score.

B16 had a binding signal of 0.719 z-score.

B17 had a binding signal of 0.755 z-score.

In turn, B18 had a binding signal of 0.727 z-score.

In the case of B19, the binding signal was 0.719 z-score.

In turn, B20 showed a binding signal of 0.745 z-score.

B21 showed a binding signal of 0.752 z-score.

As to B22, the binding signal came out at 0.755 z-score.

Another assay addresses T1, LIN28A. Described as above.
Molecule B1 registered a binding signal of 0.422 z-score.

The molecule B2 returned a binding signal of -0.745 z-score.

The molecule B3 had a binding signal of 0.627 z-score.

B4: the binding signal is -0.105 z-score.

B5 registered a binding signal of 1.04 z-score.

The molecule B6 yielded a binding signal of 0.288 z-score.

B7 had a binding signal of 0.89 z-score.

Take B8: the binding signal stood at 1.02 z-score.

B9 gave a binding signal of -0.272 z-score.

The molecule B10 yielded a binding signal of 1.69 z-score.

In turn, B11 showed a binding signal of 1.43 z-score.

For the molecule B12, the binding signal turned out to be 1.04 z-score.

For the molecule B13, the binding signal was 1.72 z-score.

The molecule B14 gave a binding signal of 0.589 z-score.

B15: the binding signal worked out at 0.243 z-score.

For B16, the binding signal stood at 0.871 z-score.

B17 displayed a binding signal of 0.0381 z-score.

Take B18: the binding signal was -0.615 z-score.

Consider B19, for which the binding signal is -1.68 z-score.

Take B20: the binding signal came out at 0.326 z-score.

For the molecule B21, the binding signal is -0.609 z-score.

The molecule B22 registered a binding signal of 1.44 z-score.

The target of a further assay is T2, CIRBP. The assay is described as above.
The molecule B1 returned a binding signal of 0.44 z-score.

The molecule B2 came in with a binding signal of -0.508 z-score.

For B3, the binding signal stood at 0.117 z-score.

Molecule B4 came in with a binding signal of -1.85 z-score.

On to B5, for which the binding signal is -0.475 z-score.

Molecule B6 came in with a binding signal of -0.636 z-score.

Molecule B7 gave a binding signal of 1.1 z-score.

On to B8, for which the binding signal is 0.399 z-score.

Molecule B9 gave a binding signal of -0.48 z-score.

In turn, B10 gave a binding signal of 1.98 z-score.

Regarding B11, the binding signal was 0.772 z-score.

Turning to B12, the binding signal turned out to be 1.44 z-score.

Consider B13, for which the binding signal turned out to be 1.5 z-score.

B14: the binding signal is -0.206 z-score.

On to B15, for which the binding signal was 0.179 z-score.

B16 registered a binding signal of -0.299 z-score.

For the molecule B17, the binding signal is -0.00588 z-score.

B18 had a binding signal of -1.95 z-score.

Turning to B19, the binding signal is -0.152 z-score.

For B20, the binding signal was -0.747 z-score.

Regarding B21, the binding signal was -0.138 z-score.

In turn, B22 showed a binding signal of 0.398 z-score.

The target in another assay is T3, DHX36. Described as above.
Turning to B1, the binding signal was -0.397 z-score.

Regarding B2, the binding signal was -0.655 z-score.

B3 gave a binding signal of 0.0108 z-score.

As for B4, the binding signal worked out at 1.14 z-score.

In the case of B5, the binding signal worked out at 0.564 z-score.

B6 returned a binding signal of -0.964 z-score.

The molecule B7 came in with a binding signal of 0.384 z-score.

Turning to B8, the binding signal was found to be 1.48 z-score.

B9 returned a binding signal of -0.64 z-score.

B10 had a binding signal of 0.719 z-score.

Molecule B11 returned a binding signal of 1.03 z-score.

Regarding B12, the binding signal was determined as 1.35 z-score.

Regarding B13, the binding signal was -0.104 z-score.

Regarding B14, the binding signal worked out at 0.292 z-score.

B15 showed a binding signal of 0.0392 z-score.

Molecule B16 yielded a binding signal of -0.556 z-score.

B17 returned a binding signal of -0.235 z-score.

In the case of B18, the binding signal is -0.839 z-score.

Consider B19, for which the binding signal was -0.852 z-score.

In the case of B20, the binding signal was -0.542 z-score.

In turn, B21 yielded a binding signal of 0.256 z-score.

With B22, the binding signal is 0.475 z-score.
